{"sequences": {"note": "Amino acid sequences for entries named in this document (tags omitted).", "UniProt Q01959, whole entry": "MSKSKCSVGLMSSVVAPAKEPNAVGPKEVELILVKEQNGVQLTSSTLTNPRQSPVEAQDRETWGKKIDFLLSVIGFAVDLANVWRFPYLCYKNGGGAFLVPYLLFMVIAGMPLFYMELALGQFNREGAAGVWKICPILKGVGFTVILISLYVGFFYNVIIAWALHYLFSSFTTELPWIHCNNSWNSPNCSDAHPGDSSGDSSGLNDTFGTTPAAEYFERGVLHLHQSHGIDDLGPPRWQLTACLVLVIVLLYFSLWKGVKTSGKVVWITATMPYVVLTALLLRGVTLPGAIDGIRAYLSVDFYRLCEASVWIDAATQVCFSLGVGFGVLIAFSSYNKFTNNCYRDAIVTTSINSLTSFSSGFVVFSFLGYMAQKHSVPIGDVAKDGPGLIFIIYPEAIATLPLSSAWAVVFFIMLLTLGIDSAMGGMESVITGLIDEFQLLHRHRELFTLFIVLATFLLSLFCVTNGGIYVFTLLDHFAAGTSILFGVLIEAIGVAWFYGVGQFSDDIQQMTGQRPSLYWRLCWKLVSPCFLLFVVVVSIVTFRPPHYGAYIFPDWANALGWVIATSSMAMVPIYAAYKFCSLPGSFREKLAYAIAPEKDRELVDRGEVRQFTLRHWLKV"}, "source": "patent US9758788B2", "about": "“Mutagenesis of plants for overproduction of selective estrogen receptor modulators” (Naprogenix, Inc., priority 2014, dated 2017)", "target": "T1, hDAT (Homo sapiens, UniProt Q01959)", "T1 construct": "The full-length hDAT cDNA was sub-cloned into pKYLX80 vector; expressed in transfected cells; host or cells: Lobelia cardinalis hairy roots (A. rhizogenes R1000, modified pCambia1301, 35S promoter)", "assay": "[3H]-GBR12935 saturation binding to transgenic hDAT hairy root cultures", "data": [{"smiles": "c1ccc(CCCN2CCN(CCOC(c3ccccc3)c3ccccc3)CC2)cc1", "note": "[[^3H]-GBR12935]", "values": [{"measurement": "Bmax", "value": "1.04 ± 0.9", "unit": "pmol/mg membrane protein"}]}]}
